According to the NIST ThermoML archive (doi:10.1021/je050317k):
± gives the expanded uncertainty stated by the source.

Details: Liquid

vapor or sublimation pressure (273.1 K): 260.1 ± 2.4 kPa
vapor or sublimation pressure (313.15 K): 870.9 ± 5.6 kPa
SMILES: CCl [chloromethane]
